Counter-ions that a name gives are not always drawn. ± gives the standard deviation of the averaged measurements. For some assays here: The strong results were mostly taken out for another list; the other results follow. This is a selection; strong and weak results do not stand in their true shares.

Assay [1] deals with HFF. In words: uninfected host cell viability relative to vehicle control; higher = less host cell toxicity. The conditions noted are these: 5 µM; 72 h; oxygen 21 %.
Assay [2] deals with Toxoplasma gondii RH (in HFF). In words: parasite growth relative to the screen mean (all compounds = 100%); higher = less inhibition of parasite growth. The following applies: 5 µM; 72 h; oxygen 21 %. In short, it runs like this: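 Growth values are relative to the mean of the whole screen and averaged over duplicate screens, with all compounds together set to 100%. Parasites (RH β-Gal–GFP Toxoplasma, MOI 1:5) were added within 2 h of pinning compounds at 5 µM final onto confluent human foreskin fibroblasts and grown 72 h at 21% O2. Parasite number came from CPRG β-Gal readings against in-plate standard curves.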
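For uninfected host cell viability relative to vehicle control in this document: confluent HFF monolayers, run in parallel with the Toxoplasma growth screen as a host toxicity counterscreen.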

`N/C(=N/CCc1ccc(I)cc1)SCCCc1cnc[nH]1` [Iodophenpropit dihydrobromide]: the “uninfected host cell viability” value in assay [1] was found to be 82.28 ± 0.62%. For the same compound, the parasite growth in assay [2] turned out to be 109 ± 5.9%.
